Results: PubChem BioAssay (NCI)
“And” between values parts separate entries of the source, which are not always exact repeats. Identical values can stand only once. The entries are a selection whose mix differs from that of the whole data set.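 The endpoint reported here, percent growth, reads 100 for growth as untreated, 0 for no net growth and -100 for all cells dead.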 The source made the active and inactive calls. Rule for the calls: active = growth percent below 10; inactive = the rest.

Columns and labels:
Assay in all cases: NCI-60 one-dose screen, 48 h (100 = growth as untreated, 0 = no growth, -100 = all killed)
Conditions in all cases: 10 µM
HCT-15 colon = tested on: HCT-15 colon
HT29 colon = tested on: HT29 colon
SNB-75 CNS = tested on: SNB-75 CNS
SNB-19 CNS = tested on: SNB-19 CNS
U251 CNS = tested on: U251 CNS
PC-3 prostate = tested on: PC-3 prostate
SK-MEL-5 melanoma = tested on: SK-MEL-5 melanoma
UACC-62 melanoma = tested on: UACC-62 melanoma
LOX IMVI melanoma = tested on: LOX IMVI melanoma
SK-MEL-28 melanoma = tested on: SK-MEL-28 melanoma

SMILES	growth (HCT-15 colon)	growth (HT29 colon)	growth (SNB-75 CNS)	growth (SNB-19 CNS)	growth (U251 CNS)	growth (PC-3 prostate)	growth (SK-MEL-5 melanoma)	growth (UACC-62 melanoma)	growth (LOX IMVI melanoma)	growth (SK-MEL-28 melanoma)
Cc1c([N+](=O)[O-])c(C)c([N+](=O)[O-])c(C)c1[N+](=O)[O-]	inactive: 96.3%	inactive: 109%	inactive: 93.6%	inactive: 100%	inactive: 103%	inactive: 99.6%	inactive: 116%	inactive: 102%	inactive: 97.1%	inactive: 104%
CC[N+](C)(CC)Cc1cc(Cc2ccccc2)ccc1OC(=O)N(C)C	inactive: 99.2%	inactive: 101%	inactive: 92.6%	inactive: 102%	inactive: 102%	inactive: 101%	inactive: 106%	inactive: 98.4%	inactive: 94.6%	inactive: 104%
O=[N+]([O-])c1cc([N+](=O)[O-])c(O)c([N+](=O)[O-])c1.c1ccc(Cc2ccncc2)cc1	inactive: 104%	inactive: 106%	inactive: 88.1%	inactive: 104%	inactive: 98.8%	inactive: 93.2%	inactive: 98.7%	inactive: 104%	inactive: 102%	inactive: 107%
O=[N+]([O-])OCCOc1ccc([N+](=O)[O-])cc1[N+](=O)[O-]	inactive: 103%	inactive: 96.7%	inactive: 87.4%	inactive: 104%	inactive: 97.5%	inactive: 84.9%	inactive: 99.2%	inactive: 97%	inactive: 102%	inactive: 111%
Cc1ccc(Nc2c([N+](=O)[O-])cc([N+](=O)[O-])cc2[N+](=O)[O-])cc1	inactive: 72%	inactive: 73.3%	inactive: 90.9%	inactive: 99.4%	inactive: 87.4%	inactive: 74.2%	inactive: 89.4%	inactive: 62.5%	inactive: 74.8%	inactive: 97.2%
CCN(CC)CCOC(=O)C(O)(c1ccccc1)c1cc(C)cc(C)c1C (stereo not drawn)	inactive: 103%	inactive: 94.1%	inactive: 73.1%	inactive: 98.4%	inactive: 95.5%	inactive: 98.1%	inactive: 106%	inactive: 96.7%	inactive: 93.7%	inactive: 104%
CCN(CC)CCOC(=O)C(O)(c1ccccc1)c1cc(C)c(C)c(C)c1C (stereo not drawn)	inactive: 96.7%	inactive: 79.9%	inactive: 45.5%	inactive: 99.6%	inactive: 102%	inactive: 82.1%	inactive: 98.4%	inactive: 98.3%	inactive: 87.9%	inactive: 108%
O=C(Cl)c1c([N+](=O)[O-])cc([N+](=O)[O-])cc1[N+](=O)[O-]	active: 5.41%	active: -51.6%	inactive: 86.3%	inactive: 85.8%	inactive: 77.3%	inactive: 77.5%	inactive: 83.5%	inactive: 85.5%	inactive: 12.5%	inactive: 37.2%
CN(C)Nc1c([N+](=O)[O-])cc([N+](=O)[O-])cc1[N+](=O)[O-]	inactive: 90%	inactive: 95.7%	inactive: 86.8%	inactive: 108%	inactive: 99.5%	inactive: 97.8%	inactive: 99.7%	inactive: 104%	inactive: 94.1%	inactive: 119%
O=[N+]([O-])c1ccc(OP2(=O)COCCO2)cc1 (stereo not drawn)	inactive: 104%	inactive: 101%	inactive: 98.5%	inactive: 103%	inactive: 97.2%	–	inactive: 108%	inactive: 94.9%	inactive: 100%	inactive: 104%
CN(Cc1cccnc1)C(=O)COc1ccc(Cl)c(Cl)c1.O=[N+]([O-])c1cc([N+](=O)[O-])c(O)c([N+](=O)[O-])c1	inactive: 110%	inactive: 105%	inactive: 80.5%	inactive: 95.6%	inactive: 94%	inactive: 93.5%	inactive: 99.4%	inactive: 103%	inactive: 102%	inactive: 110%
Clc1ccccc1SCCBr	inactive: 104%	inactive: 101%	inactive: 90.8%	–	inactive: 102%	inactive: 92.9%	inactive: 101%	–	inactive: 101%	inactive: 111%
O=[N+]([O-])c1cccc([N+](=O)[O-])c1O	inactive: 101%	inactive: 81%	inactive: 88.4%	inactive: 107%	inactive: 103%	inactive: 107%	inactive: 108%	inactive: 103%	inactive: 103%	inactive: 111%
CCN(C)CC.O=[N+]([O-])c1cc([N+](=O)[O-])c(O)c([N+](=O)[O-])c1	inactive: 104%	inactive: 91.8%	inactive: 86%	inactive: 100%	inactive: 112%	inactive: 104%	inactive: 100%	inactive: 98%	inactive: 97.7%	inactive: 109%
O=C1C(O)=C([N+](=O)[O-])C(=O)C(O)=C1[N+](=O)[O-]	inactive: 100%	inactive: 106%	inactive: 102%	inactive: 108%	inactive: 109%	inactive: 98.8%	inactive: 106%	inactive: 95.3%	inactive: 101%	inactive: 111%
CP(=O)(OCCCCl)N(CCCl)CCCl (stereo not drawn)	inactive: 96.8%	inactive: 109%	inactive: 75.6%	inactive: 109%	inactive: 93.1%	inactive: 105%	inactive: 96.9%	inactive: 103%	inactive: 105%	inactive: 101%
OCCSCCO	inactive: 96.6%	inactive: 107%	inactive: 107%	inactive: 95%	inactive: 103%	inactive: 104%	–	inactive: 101%	inactive: 99.9%	inactive: 121%
CN(CCCl)CCCCCCCl	inactive: 92.8%	inactive: 87.8%	inactive: 90.6%	inactive: 109%	inactive: 99.1%	inactive: 88.3%	inactive: 103%	inactive: 93.2%	inactive: 95.8%	inactive: 107%
CCOC(=O)CSc1c(N)c(C)nn1C.O=[N+]([O-])c1cc([N+](=O)[O-])c(O)c([N+](=O)[O-])c1	inactive: 97.7%	inactive: 93.7%	inactive: 68.5%	inactive: 97.1%	–	inactive: 100%	inactive: 104%	inactive: 96.4%	inactive: 105%	inactive: 101%
COc1ccccc1-c1ccccn1.O=[N+]([O-])c1cc([N+](=O)[O-])c(O)c([N+](=O)[O-])c1	inactive: 103%	inactive: 102%	inactive: 102%	inactive: 100%	inactive: 102%	inactive: 95.6%	inactive: 99.3%	inactive: 105%	inactive: 108%	inactive: 102%
O=[N+]([O-])c1cc([N+](=O)[O-])c(Oc2ccccc2)c([N+](=O)[O-])c1	inactive: 102%	inactive: 97.5%	inactive: 102%	inactive: 103%	inactive: 93.3%	inactive: 99.2%	inactive: 108%	inactive: 103%	inactive: 92.7%	inactive: 110%
CN(C)CCS	inactive: 110% and inactive: 106%	inactive: 111% and inactive: 99.6%	inactive: 104% and inactive: 105%	inactive: 108% and inactive: 106%	inactive: 104% and inactive: 98.7%	inactive: 96.8% and inactive: 94.9%	inactive: 108% and inactive: 116%	inactive: 105% and inactive: 108%	inactive: 109% and inactive: 95.6%	inactive: 109% and inactive: 114%
O=C(OCCN1CCCCCCCC1)C(O)(c1ccccc1)c1ccccc1	inactive: 109%	inactive: 97.4%	inactive: 99.2%	inactive: 108%	inactive: 105%	inactive: 94.9%	inactive: 101%	inactive: 98%	inactive: 107%	inactive: 95.4%
N=C(N)N(N)[N+](=O)[O-]	inactive: 102%	inactive: 106%	inactive: 86.5%	inactive: 102%	inactive: 102%	–	inactive: 111%	inactive: 101%	inactive: 108%	inactive: 112%
CCN(CC)CCOC(=O)C(O)(c1cc(C)cc(C)c1)c1cc(C)cc(C)c1	inactive: 104%	inactive: 92%	inactive: 94.7%	inactive: 98.6%	inactive: 89.9%	inactive: 92.3%	inactive: 97.7%	inactive: 92.8%	inactive: 101%	inactive: 106%
O=[N+]([O-])c1cc([N+](=O)[O-])c(C(F)(F)F)c([N+](=O)[O-])c1O	inactive: 102%	inactive: 108%	inactive: 86.2%	–	inactive: 113%	inactive: 93.5%	inactive: 85.9%	inactive: 87.1%	inactive: 96.9%	inactive: 97.9%
Cc1c([N+](=O)[O-])c(C)c([N+](=O)[O-])c(Nc2c([N+](=O)[O-])c(C)c([N+](=O)[O-])c(C)c2[N+](=O)[O-])c1[N+](=O)[O-]	active: 4.49%	active: 2.01%	inactive: 27.7%	inactive: 22.5%	active: 4.78%	active: 2.07%	active: 5.11%	active: -0.239%	active: -7.02%	inactive: 20.2%
